Reference: the supplement of paper PMC11403291

By UniProt entry, the sequences of proteins in these tests, tags left out. Where a name states a change or a piece, a line headed by the entry shows the natural chain unless it says otherwise.
UniProt P50613: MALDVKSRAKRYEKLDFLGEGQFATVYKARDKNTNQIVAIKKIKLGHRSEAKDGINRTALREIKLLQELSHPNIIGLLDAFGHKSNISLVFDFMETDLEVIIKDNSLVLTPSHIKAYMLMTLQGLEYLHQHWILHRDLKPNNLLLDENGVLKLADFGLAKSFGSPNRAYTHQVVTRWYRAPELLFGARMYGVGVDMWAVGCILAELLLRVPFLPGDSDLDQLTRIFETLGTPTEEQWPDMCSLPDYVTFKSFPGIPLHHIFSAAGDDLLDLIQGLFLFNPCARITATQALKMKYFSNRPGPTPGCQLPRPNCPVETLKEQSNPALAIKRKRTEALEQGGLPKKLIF
UniProt P49759: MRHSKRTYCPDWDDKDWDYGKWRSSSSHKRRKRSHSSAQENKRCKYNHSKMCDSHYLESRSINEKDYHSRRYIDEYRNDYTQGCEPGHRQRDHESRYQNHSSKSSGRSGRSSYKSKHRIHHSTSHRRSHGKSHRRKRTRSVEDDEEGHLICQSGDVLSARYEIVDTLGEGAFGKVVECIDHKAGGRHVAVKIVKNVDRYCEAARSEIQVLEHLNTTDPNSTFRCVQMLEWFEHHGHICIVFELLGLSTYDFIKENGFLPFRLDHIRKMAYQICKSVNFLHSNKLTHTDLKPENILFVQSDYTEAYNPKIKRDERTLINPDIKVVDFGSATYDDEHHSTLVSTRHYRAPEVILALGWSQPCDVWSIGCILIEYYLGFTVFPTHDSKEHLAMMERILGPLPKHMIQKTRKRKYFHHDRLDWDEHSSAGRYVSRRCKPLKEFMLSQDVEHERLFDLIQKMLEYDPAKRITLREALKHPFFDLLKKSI
UniProt O43293: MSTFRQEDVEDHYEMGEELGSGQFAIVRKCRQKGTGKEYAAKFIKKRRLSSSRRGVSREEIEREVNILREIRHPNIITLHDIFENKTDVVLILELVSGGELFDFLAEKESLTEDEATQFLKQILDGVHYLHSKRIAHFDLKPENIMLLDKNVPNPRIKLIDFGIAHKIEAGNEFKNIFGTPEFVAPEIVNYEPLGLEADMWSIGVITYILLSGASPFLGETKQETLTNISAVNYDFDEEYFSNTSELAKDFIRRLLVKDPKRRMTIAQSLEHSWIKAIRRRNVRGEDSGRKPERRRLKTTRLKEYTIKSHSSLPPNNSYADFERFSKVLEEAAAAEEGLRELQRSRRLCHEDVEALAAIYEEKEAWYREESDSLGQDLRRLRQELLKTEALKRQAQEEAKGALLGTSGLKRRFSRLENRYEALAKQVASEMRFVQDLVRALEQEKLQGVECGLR
UniProt P00533, whole entry: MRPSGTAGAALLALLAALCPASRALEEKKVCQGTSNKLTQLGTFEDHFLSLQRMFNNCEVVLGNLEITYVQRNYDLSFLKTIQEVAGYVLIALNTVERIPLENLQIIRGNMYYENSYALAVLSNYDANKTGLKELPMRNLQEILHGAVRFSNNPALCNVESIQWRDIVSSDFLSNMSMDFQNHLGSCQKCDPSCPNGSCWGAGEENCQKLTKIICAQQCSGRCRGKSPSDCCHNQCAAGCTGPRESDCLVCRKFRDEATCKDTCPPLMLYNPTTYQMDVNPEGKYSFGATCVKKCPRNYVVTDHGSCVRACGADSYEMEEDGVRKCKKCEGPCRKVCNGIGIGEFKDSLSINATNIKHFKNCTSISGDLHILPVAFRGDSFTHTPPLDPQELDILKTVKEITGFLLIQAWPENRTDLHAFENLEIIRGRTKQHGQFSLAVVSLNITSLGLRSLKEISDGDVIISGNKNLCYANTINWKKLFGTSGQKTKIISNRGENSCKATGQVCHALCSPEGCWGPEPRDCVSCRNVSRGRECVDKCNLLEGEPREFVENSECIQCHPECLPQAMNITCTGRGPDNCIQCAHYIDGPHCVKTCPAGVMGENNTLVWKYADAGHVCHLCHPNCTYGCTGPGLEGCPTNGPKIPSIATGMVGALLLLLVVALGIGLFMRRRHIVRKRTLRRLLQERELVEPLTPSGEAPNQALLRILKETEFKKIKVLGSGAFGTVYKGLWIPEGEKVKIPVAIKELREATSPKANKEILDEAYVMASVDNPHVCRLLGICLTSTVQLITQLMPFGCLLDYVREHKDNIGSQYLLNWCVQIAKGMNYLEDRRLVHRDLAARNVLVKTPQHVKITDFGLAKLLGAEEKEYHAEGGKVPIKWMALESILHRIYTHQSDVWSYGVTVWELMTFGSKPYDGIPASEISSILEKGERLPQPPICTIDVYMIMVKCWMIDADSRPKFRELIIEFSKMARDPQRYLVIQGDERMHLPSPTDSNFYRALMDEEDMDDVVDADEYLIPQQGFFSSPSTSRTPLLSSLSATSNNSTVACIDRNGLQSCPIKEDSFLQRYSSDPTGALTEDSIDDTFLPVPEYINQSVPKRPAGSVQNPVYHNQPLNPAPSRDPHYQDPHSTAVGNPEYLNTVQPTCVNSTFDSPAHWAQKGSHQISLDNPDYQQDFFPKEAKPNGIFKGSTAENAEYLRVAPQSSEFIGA
UniProt Q9P1W9: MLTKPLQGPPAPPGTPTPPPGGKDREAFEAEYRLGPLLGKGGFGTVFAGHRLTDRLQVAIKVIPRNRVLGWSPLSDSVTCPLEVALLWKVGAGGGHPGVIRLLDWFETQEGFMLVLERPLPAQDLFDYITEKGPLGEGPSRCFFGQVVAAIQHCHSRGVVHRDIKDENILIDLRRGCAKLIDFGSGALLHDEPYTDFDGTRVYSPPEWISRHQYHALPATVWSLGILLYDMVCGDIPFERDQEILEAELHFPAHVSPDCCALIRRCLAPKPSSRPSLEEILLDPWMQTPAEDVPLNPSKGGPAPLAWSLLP
UniProt Q16513: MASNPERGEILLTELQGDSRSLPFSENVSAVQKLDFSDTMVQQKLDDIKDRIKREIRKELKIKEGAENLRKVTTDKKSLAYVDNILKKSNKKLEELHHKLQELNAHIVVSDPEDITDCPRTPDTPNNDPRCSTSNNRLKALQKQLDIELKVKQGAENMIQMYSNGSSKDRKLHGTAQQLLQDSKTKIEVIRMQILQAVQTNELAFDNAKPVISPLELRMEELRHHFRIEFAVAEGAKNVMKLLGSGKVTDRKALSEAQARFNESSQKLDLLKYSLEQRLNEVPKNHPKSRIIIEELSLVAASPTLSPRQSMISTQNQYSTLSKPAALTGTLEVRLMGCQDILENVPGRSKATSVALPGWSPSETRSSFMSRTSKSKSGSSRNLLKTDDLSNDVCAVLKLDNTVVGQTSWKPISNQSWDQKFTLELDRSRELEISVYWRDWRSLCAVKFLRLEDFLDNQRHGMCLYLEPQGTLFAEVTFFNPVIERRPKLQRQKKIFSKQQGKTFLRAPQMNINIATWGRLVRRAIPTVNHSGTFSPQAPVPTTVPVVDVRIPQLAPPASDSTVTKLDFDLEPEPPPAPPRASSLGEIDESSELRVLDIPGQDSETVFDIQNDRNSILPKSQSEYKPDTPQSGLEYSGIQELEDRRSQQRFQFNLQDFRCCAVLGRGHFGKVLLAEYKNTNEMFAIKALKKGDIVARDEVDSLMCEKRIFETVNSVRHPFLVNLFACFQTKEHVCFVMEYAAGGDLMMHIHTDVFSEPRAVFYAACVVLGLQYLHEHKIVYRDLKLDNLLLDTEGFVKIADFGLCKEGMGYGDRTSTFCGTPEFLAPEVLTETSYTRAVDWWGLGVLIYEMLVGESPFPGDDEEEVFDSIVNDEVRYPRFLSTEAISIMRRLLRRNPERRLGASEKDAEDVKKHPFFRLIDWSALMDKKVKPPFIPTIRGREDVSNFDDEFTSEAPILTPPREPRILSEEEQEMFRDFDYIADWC
UniProt Q9H0K1: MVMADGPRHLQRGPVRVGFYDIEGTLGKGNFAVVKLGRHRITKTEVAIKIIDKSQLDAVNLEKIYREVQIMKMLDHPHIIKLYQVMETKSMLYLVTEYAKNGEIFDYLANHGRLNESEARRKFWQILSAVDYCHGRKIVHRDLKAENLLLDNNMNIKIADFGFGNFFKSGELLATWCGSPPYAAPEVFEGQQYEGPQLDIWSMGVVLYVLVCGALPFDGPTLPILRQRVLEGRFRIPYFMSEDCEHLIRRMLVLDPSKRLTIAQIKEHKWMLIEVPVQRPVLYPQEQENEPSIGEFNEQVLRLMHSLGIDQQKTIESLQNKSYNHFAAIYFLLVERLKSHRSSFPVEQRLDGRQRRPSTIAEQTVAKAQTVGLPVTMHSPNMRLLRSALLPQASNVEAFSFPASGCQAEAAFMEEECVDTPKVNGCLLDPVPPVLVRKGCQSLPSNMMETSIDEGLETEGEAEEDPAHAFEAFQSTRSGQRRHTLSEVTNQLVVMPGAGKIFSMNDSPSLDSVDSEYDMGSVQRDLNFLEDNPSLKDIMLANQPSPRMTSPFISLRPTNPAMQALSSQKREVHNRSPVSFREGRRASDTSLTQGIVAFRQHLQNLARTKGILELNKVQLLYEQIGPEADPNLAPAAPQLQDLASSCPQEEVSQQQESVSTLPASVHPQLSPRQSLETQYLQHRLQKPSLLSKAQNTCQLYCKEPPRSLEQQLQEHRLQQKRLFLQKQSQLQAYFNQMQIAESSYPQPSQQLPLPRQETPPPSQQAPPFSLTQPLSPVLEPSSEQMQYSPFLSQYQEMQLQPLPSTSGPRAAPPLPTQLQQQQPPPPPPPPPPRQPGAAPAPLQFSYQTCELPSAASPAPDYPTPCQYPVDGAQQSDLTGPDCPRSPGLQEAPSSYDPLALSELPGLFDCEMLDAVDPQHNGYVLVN

Tests used:
Test in all cases: apparent dissociation constant pKd app (kinobead competition) (-log10(M)); higher = stronger binding
ADRBK1 = molecular target: T1, ADRBK1 (UniProt P25098)
T1 sequence (whole entry): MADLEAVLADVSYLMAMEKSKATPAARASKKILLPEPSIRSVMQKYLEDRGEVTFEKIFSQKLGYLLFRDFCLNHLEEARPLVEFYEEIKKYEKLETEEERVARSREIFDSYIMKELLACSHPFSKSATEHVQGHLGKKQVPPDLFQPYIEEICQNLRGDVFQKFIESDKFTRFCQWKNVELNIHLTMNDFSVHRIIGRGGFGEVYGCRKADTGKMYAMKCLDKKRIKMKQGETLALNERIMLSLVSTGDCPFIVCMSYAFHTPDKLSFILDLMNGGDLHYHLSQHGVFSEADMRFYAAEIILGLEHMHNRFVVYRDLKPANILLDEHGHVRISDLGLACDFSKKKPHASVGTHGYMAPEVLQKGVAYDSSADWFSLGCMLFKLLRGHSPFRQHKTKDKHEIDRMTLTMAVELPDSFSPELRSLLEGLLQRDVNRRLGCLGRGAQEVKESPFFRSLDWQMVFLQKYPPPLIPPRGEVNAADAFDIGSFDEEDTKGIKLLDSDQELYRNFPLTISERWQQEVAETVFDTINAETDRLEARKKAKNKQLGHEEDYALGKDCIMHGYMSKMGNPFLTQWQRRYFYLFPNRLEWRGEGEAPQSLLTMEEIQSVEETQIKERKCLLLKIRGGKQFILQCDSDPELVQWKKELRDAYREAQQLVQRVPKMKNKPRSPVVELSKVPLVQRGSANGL

CDK7 = CDK7 (UniProt P50613)
CLK1 = CLK1 (UniProt P49759)
DAPK3 = DAPK3 (UniProt O43293)
EGFR = EGFR (UniProt P00533)
PIM2 = PIM2 (UniProt Q9P1W9)
PIP4K2A = molecular target: T2, PIP4K2A (UniProt P48426)
T2 sequence (whole entry): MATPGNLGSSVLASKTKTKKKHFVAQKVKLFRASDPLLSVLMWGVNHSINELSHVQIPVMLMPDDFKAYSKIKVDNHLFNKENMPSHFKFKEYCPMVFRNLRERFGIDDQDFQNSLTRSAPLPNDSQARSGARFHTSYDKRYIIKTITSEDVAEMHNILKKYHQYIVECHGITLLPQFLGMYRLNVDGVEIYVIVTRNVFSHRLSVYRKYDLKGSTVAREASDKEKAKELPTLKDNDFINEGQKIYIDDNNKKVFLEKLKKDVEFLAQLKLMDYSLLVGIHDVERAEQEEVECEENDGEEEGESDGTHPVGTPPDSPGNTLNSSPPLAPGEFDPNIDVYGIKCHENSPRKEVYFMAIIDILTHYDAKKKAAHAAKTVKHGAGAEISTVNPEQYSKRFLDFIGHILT

PIP4K2C = molecular target: T3, PIP4K2C (UniProt Q8TBX8)
T3 sequence (whole entry): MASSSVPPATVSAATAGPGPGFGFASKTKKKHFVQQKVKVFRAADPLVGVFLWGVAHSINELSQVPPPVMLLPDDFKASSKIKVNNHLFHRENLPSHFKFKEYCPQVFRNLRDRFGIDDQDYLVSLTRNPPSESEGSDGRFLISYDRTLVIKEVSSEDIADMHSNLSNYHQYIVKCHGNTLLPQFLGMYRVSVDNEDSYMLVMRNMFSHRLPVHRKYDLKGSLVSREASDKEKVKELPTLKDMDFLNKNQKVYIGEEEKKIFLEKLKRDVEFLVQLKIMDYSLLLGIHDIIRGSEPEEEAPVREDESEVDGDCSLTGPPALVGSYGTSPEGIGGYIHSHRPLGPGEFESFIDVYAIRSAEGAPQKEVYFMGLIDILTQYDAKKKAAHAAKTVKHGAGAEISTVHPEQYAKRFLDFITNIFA

PKN2 = PKN2 (UniProt Q16513)
SIK2 = SIK2 (UniProt Q9H0K1)

SMILES: NC(=O)c1cccc2cn(-c3ccc([C@@H]4CCCNC4)cc3)nc12 [Niraparib]
- apparent dissociation constant pKd app (-log10) (ADRBK1): < 4.6
- apparent dissociation constant pKd app (-log10) (CDK7): < 4.5
- apparent dissociation constant pKd app (-log10) (CLK1): < 4.7
- apparent dissociation constant pKd app (-log10) (DAPK3): < 4.5
- apparent dissociation constant pKd app (-log10) (EGFR): < 4.5
- apparent dissociation constant pKd app (-log10) (PIM2): < 4.6
- apparent dissociation constant pKd app (-log10) (PIP4K2A): < 4.6
- apparent dissociation constant pKd app (-log10) (PIP4K2C): < 4.6
- apparent dissociation constant pKd app (-log10) (PKN2): < 4.5
- apparent dissociation constant pKd app (-log10) (SIK2): < 4.8

SMILES: O=C(c1cc(Cc2n[nH]c(=O)c3ccccc23)ccc1F)N1CCN(C(=O)C2CC2)CC1 [Olaparib]
- apparent dissociation constant pKd app (-log10) (ADRBK1): < 4.6
- apparent dissociation constant pKd app (-log10) (CDK7): < 4.5
- apparent dissociation constant pKd app (-log10) (CLK1): < 4.7
- apparent dissociation constant pKd app (-log10) (DAPK3): < 4.5
- apparent dissociation constant pKd app (-log10) (EGFR): < 4.5
- apparent dissociation constant pKd app (-log10) (PIM2): < 4.6
- apparent dissociation constant pKd app (-log10) (PIP4K2A): < 4.6
- apparent dissociation constant pKd app (-log10) (PIP4K2C): < 4.6
- apparent dissociation constant pKd app (-log10) (PKN2): < 4.5
- apparent dissociation constant pKd app (-log10) (SIK2): < 4.8

SMILES: Cn1ncnc1[C@H]1c2n[nH]c(=O)c3cc(F)cc(c23)N[C@@H]1c1ccc(F)cc1 [Talazoparib]
- apparent dissociation constant pKd app (-log10) (ADRBK1): < 4.6
- apparent dissociation constant pKd app (-log10) (CDK7): < 4.5
- apparent dissociation constant pKd app (-log10) (CLK1): < 4.7
- apparent dissociation constant pKd app (-log10) (DAPK3): < 4.5
- apparent dissociation constant pKd app (-log10) (EGFR): < 4.5
- apparent dissociation constant pKd app (-log10) (PIM2): < 4.6
- apparent dissociation constant pKd app (-log10) (PIP4K2A): < 4.6
- apparent dissociation constant pKd app (-log10) (PIP4K2C): < 4.6
- apparent dissociation constant pKd app (-log10) (PKN2): < 4.5
- apparent dissociation constant pKd app (-log10) (SIK2): < 4.8
